Measurements reported in PubChem BioAssay (NCI).
Some results for these compounds are left out of this collection, so the calls shown say nothing about other tests.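 Briefly, cells in 96-well plates were exposed to five compound concentrations for 48 h, and endpoints were estimated by linear interpolation. At the GI50, growth is halved.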

Tests used:
Experiment in all cases: NCI anticancer screen, dose series, 48 h; in the data active = GI50 below about 0.43 µM; inactive = the rest
786-0 renal = tested on: 786-0 renal
A498 renal = tested on: A498 renal
A549 NSCLC = tested on: A549 NSCLC
ACHN renal = tested on: ACHN renal
BT-549 breast = tested on: BT-549 breast
CAKI-1 renal = tested on: CAKI-1 renal
CCRF-CEM leukemia = tested on: CCRF-CEM leukemia
COLO 205 colon = tested on: COLO 205 colon
DU-145 prostate = tested on: DU-145 prostate
EKVX NSCLC = tested on: EKVX NSCLC
HCT-116 colon = tested on: HCT-116 colon
HCT-15 colon = tested on: HCT-15 colon
HL-60(TB) leukemia = tested on: HL-60(TB) leukemia
HOP-62 NSCLC = tested on: HOP-62 NSCLC
HOP-92 NSCLC = tested on: HOP-92 NSCLC
HS 578T breast = tested on: HS 578T breast
HT29 colon = tested on: HT29 colon
IGROV1 ovarian = tested on: IGROV1 ovarian
K-562 leukemia = tested on: K-562 leukemia
LOX IMVI melanoma = tested on: LOX IMVI melanoma
M14 melanoma = tested on: M14 melanoma
MALME-3M melanoma = tested on: MALME-3M melanoma
MCF7 breast = tested on: MCF7 breast
MDA-MB-231 breast = tested on: MDA-MB-231 breast
MDA-MB-435 = tested on: MDA-MB-435
MDA-N = tested on: MDA-N
MOLT-4 leukemia = tested on: MOLT-4 leukemia
NCI-H226 lung = tested on: NCI-H226 lung
NCI-H23 lung = tested on: NCI-H23 lung
NCI-H322M lung = tested on: NCI-H322M lung
NCI-H522 lung = tested on: NCI-H522 lung
NCI/ADR-RES ovarian = tested on: NCI/ADR-RES ovarian
OVCAR-3 ovarian = tested on: OVCAR-3 ovarian
OVCAR-4 ovarian = tested on: OVCAR-4 ovarian
OVCAR-5 ovarian = tested on: OVCAR-5 ovarian
OVCAR-8 ovarian = tested on: OVCAR-8 ovarian
PC-3 prostate = tested on: PC-3 prostate
RPMI-8226 leukemia = tested on: RPMI-8226 leukemia
RXF 393 renal = tested on: RXF 393 renal
SF-268 CNS = tested on: SF-268 CNS
SF-295 CNS = tested on: SF-295 CNS
SF-539 CNS = tested on: SF-539 CNS
SK-MEL-2 melanoma = tested on: SK-MEL-2 melanoma
SK-MEL-28 melanoma = tested on: SK-MEL-28 melanoma
SK-MEL-5 melanoma = tested on: SK-MEL-5 melanoma
SK-OV-3 ovarian = tested on: SK-OV-3 ovarian
SN12C renal = tested on: SN12C renal
SNB-19 CNS = tested on: SNB-19 CNS
SNB-75 CNS = tested on: SNB-75 CNS
SR leukemia = tested on: SR leukemia
T-47D breast = tested on: T-47D breast
TK-10 renal = tested on: TK-10 renal
U251 CNS = tested on: U251 CNS
UACC-257 melanoma = tested on: UACC-257 melanoma
UACC-62 melanoma = tested on: UACC-62 melanoma
UO-31 renal = tested on: UO-31 renal

Measured: GI50

O=C(OCCN1C2CCCC1CCC2)C(O)(c1ccccc1)c1ccccc1
inactive: 786-0 renal > 100 µM | A498 renal > 100 µM | A549 NSCLC > 100 µM | ACHN renal > 100 µM | BT-549 breast > 100 µM | CAKI-1 renal > 100 µM | CCRF-CEM leukemia > 100 µM | COLO 205 colon > 100 µM | DU-145 prostate > 100 µM | EKVX NSCLC > 100 µM | HCT-116 colon > 100 µM | HCT-15 colon > 100 µM | HL-60(TB) leukemia > 100 µM | HOP-62 NSCLC > 100 µM | HOP-92 NSCLC > 100 µM | HS 578T breast > 100 µM | HT29 colon > 100 µM | IGROV1 ovarian > 100 µM | K-562 leukemia > 100 µM | LOX IMVI melanoma > 100 µM | M14 melanoma > 100 µM | MALME-3M melanoma > 100 µM | MCF7 breast > 100 µM | MDA-MB-231 breast > 100 µM | MDA-MB-435 = > 100 µM | MDA-N > 100 µM | MOLT-4 leukemia > 100 µM | NCI-H226 lung > 100 µM | NCI-H23 lung > 100 µM | NCI-H322M lung > 100 µM | NCI-H522 lung > 100 µM | NCI/ADR-RES ovarian > 100 µM | OVCAR-3 ovarian > 100 µM | OVCAR-4 ovarian > 100 µM | OVCAR-5 ovarian > 100 µM | OVCAR-8 ovarian > 100 µM | PC-3 prostate > 100 µM | RPMI-8226 leukemia > 100 µM | RXF 393 renal > 100 µM | SF-268 CNS > 100 µM | SF-295 CNS > 100 µM | SF-539 CNS > 100 µM | SK-MEL-2 melanoma > 100 µM | SK-MEL-28 melanoma > 100 µM | SK-MEL-5 melanoma > 100 µM | SK-OV-3 ovarian > 100 µM | SN12C renal > 100 µM | SNB-19 CNS > 100 µM | SNB-75 CNS > 100 µM | SR leukemia > 100 µM | T-47D breast > 100 µM | TK-10 renal > 100 µM | U251 CNS > 100 µM | UACC-257 melanoma > 100 µM | UACC-62 melanoma > 100 µM | UO-31 renal > 100 µM
